{"source": "ChEMBL document CHEMBL3102835", "about": "“Dimeric unnatural polyproline-rich peptides with enhanced antibacterial activity” (Bioorg Med Chem Lett, 2014)", "key": {"[1]": {"tested_on": "Staphylococcus aureus", "assay": "Antibacterial activity against Staphylococcus aureus by broth microdilution method", "assay_type": "functional", "outline": "(§1)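 Broth microdilution. E. coli ATCC 25922 or S. aureus ATCC 25923 grown to mid-exponential phase in TSB at 37 °C, 200 rpm. MIC taken as the lowest concentration with no growth.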"}, "[2]": {"tested_on": "Escherichia coli", "assay": "Antibacterial activity against Escherichia coli by broth microdilution method", "assay_type": "functional", "outline": "as §1"}}, "data": [{"smiles": "CC[C@H](C)[C@H](NC(=O)CN)C(=O)NCC(=O)N[C@@H](C)C(=O)N[C@H](C(=O)N[C@@H](CC(C)C)C(=O)N[C@@H](CCCCN)C(=O)N[C@H](C(=O)N[C@@H](CC(C)C)C(=O)N[C@H](C(=O)N[C@H](C(=O)NCC(=O)N[C@@H](CC(C)C)C(=O)N1CCC[C@H]1C(=O)N[C@@H](C)C(=O)N[C@@H](CC(C)C)C(=O)N[C@H](C(=O)N[C@@H](CO)C(=O)N[C@@H](Cc1c[nH]c2ccccc12)C(=O)N[C@H](C(=O)N[C@@H](CCCCN)C(=O)N[C@@H](CCCNC(=N)N)C(=O)N[C@@H](CCCCN)C(=O)N[C@@H](CCCNC(=N)N)C(=O)N[C@@H](CCC(N)=O)C(=O)N[C@@H](CCC(N)=O)C(N)=O)[C@@H](C)CC)[C@@H](C)CC)[C@@H](C)O)[C@@H](C)O)C(C)C)C(C)C", "note": "[MELITTIN]", "values": [{"measurement": "MIC", "setting": "[1]", "value": 2.1, "unit": "µM"}, {"measurement": "MIC", "setting": "[2]", "value": 4.6, "unit": "µM"}]}]}
